Values quoted from earlier work, collected in patent US20070015719A1, “Nanoparticulate clarithromycin formulations” (Elan Pharma International Limited, priority 2005, published 2007).

Settings: in vivo, po

6-o-methyl erythromycin A [clarithromycin]
absolute bioavailability: 50%
